In patent US20090298797A1, “COMBINATION THERAPY FOR THE TREATMENT OF INFLUENZA” (priority 2008, published 2009):

System: lung, brain, spleen, kidney and liver tissues
Experiment: Histopathological analysis of tissues of challenged mice (H&E)
Assay type: in vivo, BALB/c mice

Structure (SMILES): CC(=O)N[C@H]1[C@H]([C@H](O)[C@H](O)CO)OC(C(=O)O)=C[C@@H]1N=C(N)N [zanamivir]
- mononuclear cell infiltration in the cerebral cortex (histopathology) (mouse, in vivo): focal mild perivascular mononuclear cell infiltration
- reactive lymphoid cells with frequent apoptotic bodies in spleen (histopathology) (mouse, in vivo): found
- alveolar inflammation on histological examination (surviving mice, day 21 after viral challenge): inflammatory infiltrate
